Measured values published in PubChem BioAssay AID540263 (National Center for Advancing Translational Sciences (NCATS), 2011).
The whole screen tested about 340,000 compounds, of which about 100 (0.029%) were called active. Not shown: some 8% with an inconclusive outcome. For the sample, actives were picked, then their nearest neighbours and some compounds at random. Values without a mark were called inactive. The call rests on the fitted dose curve. Where a SMILES comes first, the peptide text is derived from it. [ ]: non-standard residue; d: D form. ξ: configuration not given here. Ac5c = NC1(C(=O)O)CCCC1; ξS = NC(CO)C(=O)O

Sequences of proteins named here, by UniProt entry; tags and fusion partners are left off.
UniProt Q14974, whole entry, looked up: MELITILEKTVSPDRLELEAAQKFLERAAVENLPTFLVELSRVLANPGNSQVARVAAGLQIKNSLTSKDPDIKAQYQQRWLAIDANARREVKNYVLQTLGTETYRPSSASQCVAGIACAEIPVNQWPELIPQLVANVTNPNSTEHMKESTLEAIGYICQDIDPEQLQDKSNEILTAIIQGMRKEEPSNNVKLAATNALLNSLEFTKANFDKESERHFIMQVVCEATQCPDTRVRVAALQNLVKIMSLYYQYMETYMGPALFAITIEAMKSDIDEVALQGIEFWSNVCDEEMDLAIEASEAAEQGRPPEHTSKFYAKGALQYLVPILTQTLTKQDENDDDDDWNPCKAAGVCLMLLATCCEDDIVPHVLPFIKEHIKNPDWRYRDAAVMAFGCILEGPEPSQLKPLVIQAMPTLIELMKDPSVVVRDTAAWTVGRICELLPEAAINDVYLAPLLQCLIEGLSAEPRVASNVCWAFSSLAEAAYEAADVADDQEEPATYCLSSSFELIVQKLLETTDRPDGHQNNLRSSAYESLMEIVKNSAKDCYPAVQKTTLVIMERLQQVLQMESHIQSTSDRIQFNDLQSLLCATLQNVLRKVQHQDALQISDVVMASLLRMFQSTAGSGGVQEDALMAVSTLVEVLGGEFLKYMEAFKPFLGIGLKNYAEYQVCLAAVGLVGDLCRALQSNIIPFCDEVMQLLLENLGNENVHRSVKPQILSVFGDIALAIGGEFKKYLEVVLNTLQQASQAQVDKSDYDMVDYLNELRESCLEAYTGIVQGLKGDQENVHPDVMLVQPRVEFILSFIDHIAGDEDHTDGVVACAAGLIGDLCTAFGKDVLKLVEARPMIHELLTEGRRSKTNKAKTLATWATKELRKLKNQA

molecular target: Importin subunit beta-1 (Homo sapiens) (UniProt Q14974); assay: qHTS Assay for Inhibitors of Rango (Ran-regulated importin-beta cargo) - Importin beta complex formation; details: Rango CFP/YFP FRET sensor + importin beta, 45 min; series mostly up to 92.2 µM; inhibition of complex formation: at the top concentration; further: nearly all actives have a fitted effect of over 15% in size;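 on inhibition of complex formation: 0% = DMSO wells and 100% = buffer wells lacking importin beta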
Excerpt: NIH Molecular Libraries Probe Production Centers Network [MLPCN] NIH Chemical Genomics Center [NCGC] MLPCN Grant: R03 MH090808-01A1 Assay Submitter (PI): Petr Kalab NCGC Assay Overview: The small GTPase Ran regulates transport of macromolecules between the nucleus and the cytoplasm (nuclear transport) and has important functions in mitotic spindle assembly, nuclear envelope (NE) formation and nuclear pore complex (NPC) assembly. RanGTP gradient is thought to promote spindle assembly by providing a spatial clue to microtubule nucleation and Aurora A activation. Because the localized release and binding of importin alpha cargo relays this spatial clue to SAFs, inhibitors of the Rango - importin beta complex can then be used in further understanding their role in cell cycle specifically in mitosis progression. […] Activation of Aurora A has been linked to different types of cancer and a number of Aurora kinase inhibitors are being developed as potential canter therapeutics therefore, identified inhibitors of this complex could be developed into potential anti-mitotic probes for cancer treatment. Purified recombinant proteins Rango and importin beta were provided by the assay submitter. The assay used a fluorescence resonance energy transfer (FRET) Rango biosensor that contains the IBB of human snurportin 1 flanked by yellow fluorescent protein (EYFP) at the amino terminus and cerulean CFP10 at the carboxy terminus. […] Inhibitors will therefore be identified based on the ability to interfere with the FRET signal decrease. DMSO treated and no importin beta (buffer only) wells were used as negative and positive controls respectively. FRET readings were obtained at two time points. FRET reading prior to importin beta addition (pre-read) were used flag potential compound interference; FRET reading after importin beta addition (post-read) were used to identify inhibitors using the FRET ratio parameter.
NCGC Assay Protocol Summary: Two and a half uL/well of Rango-buffer solution (50 nM Rango, 1x PBS, 1mM DTT, 0.02% Tween-20, 0.1% BSA final concentrations) was dispensed into 1536-well assay plates (Greiner, solid black medium-binding plates) with Aurora Discovery BioRAPTR Flying Reagent Dispenser (FRD; Beckton-Dickenson). Compound solution (23 nL) was transferred to the assay plate using Kalypsys pin tool equipped with a 1536-pin tool and incubated at room temperature for 5 min followed by a FRET pre-read using the PerkinElmer Envision plate reader. Two and a half uL/well of Importin beta - buffer solution (0.125 microM importin beta, 1x PBS, 1mM DTT, 0.02% Tween-20, 0.1% BSA final concentrations) were then added and incubated at room temperature giving a final reaction volume of 5uL. After 45min FRET post-read was obtained via the Envision plate reader using the same optics and settings as the pre-read (CFP/YFP optimized dual optical module D450/D505; excitation mirror CFP 430/24 nm; and emission filters CFP 486/10 nm and YFP 530/10 nm).
Potency means the concentration at half of the fitted maximal effect; tags describe the fitted curve by direction and shape.

SMILES	inhibition of complex formation [%]	Potency
CCN(CC)S(=O)(=O)c1cccc(NC(=O)c2ccc(S(=O)(=O)N3CCCC3)cc2)c1	-0.567	–
O=C(NNc1nc(N2CCCC2)nc(N2CCCC2)n1)c1ccccc1	-2.23	–
O=C(NCC1CCCCC1)NCC1CCCCC1	0.434	–
Cc1cc(OCCCC(=O)Nc2cc(S(=O)(=O)N3CCOCC3)ccc2N2CCOCC2)ccc1Cl	-3.56	–
C(#CCN1CCOCC1)CCCN1CCOCC1	-2.11	–
c1ccc(C(=NNc2nc3ccccc3s2)c2ccccn2)cc1	3.48	–
O=C1C(Cl)=C(Oc2ccccc2)C(=O)c2ccccc21	-0.947	–
O=C(O)C1C2C=CC(O2)C1C(=O)Nc1ccccn1 (stereo not drawn)	-0.337	–
O=C1CC[C@@H]2CC3(C[C@@H]4CCN1[C@H]24)Nc1cc([N+](=O)[O-])ccc1NC3=NC1CCCCC1 (stereo partly drawn)	7.93	–
COc1cccc2c1C(=O)c1c(O)c3c(c(O)c1C2=O)CC(O)(C(C)=NNC(=O)c1ccc(Cl)c(Cl)c1)CC3OC1CC(N)C(O)C(C)O1 (stereo not drawn)	–	14.6 µM (active)
Cc1cccc(NC(=S)N2CCC(C(=O)c3ccc(F)cc3)CC2)c1	5.47	–
CCC1([N+](=O)[O-])COC(c2ccc(C)cc2)OC1 (stereo not drawn)	1.54	–
COC(=O)c1ccc(NCc2cc(O)ccc2O)cc1	-7.51	–
CC(=O)c1ccc(NC(=O)C(C)OC(=O)c2ccc(NS(=O)(=O)c3ccc4[nH]c(=O)[nH]c4c3)cc2)cc1 (stereo not drawn)	0.601	–
CCN(CC)CCOc1ccc2c(c1)C(=NNC(=O)c1ccccn1)c1cc(OCCN(CC)CC)ccc1-2	–	46.1 µM (active)
CCOc1cc2ccccc2cc1C(=O)Nc1ccccn1	0.912	–
Cc1cccc(OCC(=O)NCCCNC(=O)c2ccccn2)c1	3.28	–
COC(=O)c1ccc(CNC(=O)Cn2cc(C)c(=O)[nH]c2=O)cc1	-2.1	–
CC(Nc1ccc([N+](=O)[O-])cc1[N+](=O)[O-])c1ccccc1 (stereo not drawn)	-0.617	–
CCCN(C(=O)COC(=O)CNS(=O)(=O)c1ccc(NC(C)=O)cc1)C1CCS(=O)(=O)C1 (stereo not drawn)	0.164	–
CC(=NNC(=S)N1CCCCCC1)c1ccccn1	-3.27	–
CCOc1ccc(CCNC(=O)COC(=O)C2CCN(S(=O)(=O)c3ccccc3)CC2)cc1OCC	-2.12	–
O=C(N/N=C/c1ccc(Cl)c(Cl)c1)c1ccc2nc[nH]c2c1	2.08	–
CC(=NNC(=O)c1ccc2nc[nH]c2c1)c1ccc(Br)cc1	–	51.7 µM (active)
COc1ccc(/C(C)=N/NC(=O)c2ccc3nc[nH]c3c2)cc1	-1.28	–

SMILES	inhibition of complex formation [%]	Potency
COc1ccc(CCN2CC(C(=O)OCC(=O)NCc3ccccc3Cl)CC2=O)cc1OC (stereo not drawn)	5.68	–
COc1cc2c(cc1OC)C1C(=O)c3cc(OS(C)(=O)=O)c(OC)cc3C1N(C)C2=O (stereo not drawn)	-0.982	–
O=C(Cc1ccc(NC(=O)C2CCCN(C(=O)C3CCCCC3)C2)cc1)Nc1cccc(C(=O)N2CCCCC2)c1 (stereo not drawn)	-3.72	–
CCOC(=O)[C@H]1[C@H]2COc3ccc(Br)cc3[C@@H]2N2C(=O)CN(C)C(=O)[C@@]12C	-0.78	–
O=C(NCCc1ccccc1)c1cccc(NC(=O)c2ccccc2)c1	0.414	–
CC(=O)CSc1nc(CCc2ccccc2)c(C#N)c(=O)[nH]1	-0.166	–
COC1C(CO)OC(n2cnc3c(=S)nc(N)[nH]c32)C1O (stereo not drawn)	5.99	–
COc1ccc(Cn2cc(CN3CCS(=O)(=O)N(Cc4ccc(-c5cccc(Cl)c5)cc4)C(C)C3=O)nn2)cc1 (stereo not drawn)	0.684	–
CCN1C[C@@H]2[C@@H]3C(=O)N(Cc4ccccc4)C(=O)[C@@H]3[C@](C)(C1=O)N2C(=O)c1ccc(C(C)(C)C)cc1	-0.393	–
Cc1cc2c(cc1C)NC1(C[C@H]3CCC(=O)N4CC[C@@H](C1)[C@@H]34)C(=NC(C)(C)CC(C)(C)C)N2 (stereo partly drawn)	-5.93	–
O=C(OCCOc1ccccc1F)c1cc(S(=O)(=O)N2CCOCC2)ccc1F	-0.785	–
O=C1/C(=C\c2ccc([N+](=O)[O-])cc2)CS(=O)(=O)C/C1=C/c1ccc([N+](=O)[O-])cc1	-1.37	–
FC(F)(F)c1ccc(-c2cccc3c2C2CC3CCN2Cc2ccccc2)cc1 (stereo not drawn)	-0.476	–
CCOc1ccc(S(=O)(=O)N2CCN(C(=O)c3oc4ccccc4c3C)CC2)cc1	0.762	–
Cc1nc(N)nc(Cl)c1CCC1OCCO1	-0.198	–
Cn1c(=O)[nH]c2c(c(C(=O)O)nn2C)c1=O	2.54	–
O=C(CC(=O)c1cccnc1)c1ccccc1	-1.07	–
O=C(O)C(c1cccs1)C1(O)CCCCC1 (stereo not drawn)	2.58	–
CC(=NNC(=O)c1ccncc1)c1ccc(Cl)c(Cl)c1	0.952	–
Cc1ccc2c(O)c(Cc3ccccc3)c(=O)[nH]c2n1	-0.948	–
COc1ccc(OC)c(Cc2cnc3nc(N)nc(N)c3c2C)c1	1.02	–
O=C1NC(=O)C(CCc2ccccc2)(c2ccccc2)N1 (stereo not drawn)	-0.134	–
O=S(=O)(Nc1ccc2ccccc2c1)N1CCCCC1	1.21	–
NC(=O)C1(Nc2ccc([N+](=O)[O-])cc2)CCCC1	1.99	–
COc1cccc(-n2nc(C(=O)N3CCN(Cc4ccccc4)CC3)c3ccccc3c2=O)c1	0.18	–

SMILES	inhibition of complex formation [%]	Potency
CCOC(=O)N1CCN(Cc2nc3ccc([N+](=O)[O-])cc3c(=O)n2-c2cccc(OC)c2)CC1	–	65.1 µM (active)
CCOC(=O)N1CCN(Cc2nc3cc(NC(C)=O)ccc3n2C)CC1	1.49	–
C=CCn1c(=O)n(C)c2c(=O)n(C)c(=O)n(C)c21	0.323	–
CCc1nnc(NC(=O)c2cc(S(=O)(=O)N3CCN(CC)CC3)ccc2Cl)s1	-0.0496	–
O=[N+]([O-])c1ccc(N2CCOCC2)cc1	-0.532	–
COC1=CC(=O)OC(c2ccc(OC)cc2)C1 (stereo not drawn)	0.94	–
C[C@@H]1NS(=O)(=O)c2cc(Cl)ccc2O[C@@H]1c1ccccc1	0.256	–
Cc1onc(-c2c(F)cccc2Cl)c1C(=O)Nc1cccc(S(=O)(=O)N2CCCCC2)c1	-3.64	–
COc1cc(O)c2c(=O)c3c(O)c(O)ccc3oc2c1OC	2.1	–
COc1ccccc1C(=O)c1ccccc1C(=O)c1ccccc1	0.498	–
CCc1c(Nc2ccccc2Cl)nc(N)[nH]c1=O	-2.61	–
O=C1NCC(c2ccccc2)(c2ccccc2)C(=O)N1	-0.926	–
CC(=O)OC1CCC2(C)C(=CCC3C4CC(=O)N(O)C(=O)C4(C)CCC32)C1 (stereo not drawn)	8.37	–
O=c1[nH]c(=S)[nH]c(O)c1/C=C1\C=Nc2ccccc21	-4.21	–
CN1CCC(N(C)C(=O)c2ccc(Cl)c(S(=O)(=O)Nc3ccc(Cl)cc3)c2)CC1	0.197	–
O=C1CC(C(=O)O)NC(=S)N1 (stereo not drawn)	-2.32	–
Cc1ccc(C)c(S(=O)(=O)N(C)c2ccc(OC(=O)C3CCN(C(=O)c4ccc(F)cc4)CC3)cc2)c1	0.0057	–
COc1ccc(C(=O)Nc2cccc(/C=C(/CCC(=O)O)c3nc4ccccc4s3)c2)cc1	1.46	–
O=C1COc2c1ccc(O)c2O	7.6	–
COc1ccc(-c2nnc(-c3ccc4ccccc4c3)o2)cc1	0.838	–
CC(=O)c1cccc(-c2ccc(CN3C(CC(C)C)C(=O)N(Cc4cn(CC5CCCCC5)nn4)CCS3(=O)=O)cc2)c1 (stereo not drawn)	0.492	–
Cn1c(N)cc(=O)n(C)c1=S	1.95	–
Nc1ccc2[nH]c(=S)sc2c1	1.37	–
Cc1nc(N)sc1-c1ccccc1	0.85	–
COc1ccc(Nc2ccc3ccccc3c2)cc1	-0.857	–

SMILES	inhibition of complex formation [%]	Potency
O=C(CCC(=O)N1CCN(S(=O)(=O)c2ccc(Cl)cc2)CC1)NCc1cccc(C(F)(F)F)c1	-4.66	–
CCOC(=O)C(CO)NC(=O)C1(NC(C)=O)CCCC1 (stereo not drawn) (Ac-[Ac5c]-[ξS]-OEt)	3.58	–
CCN1CCC(O)(/C=C/c2ccc(C)cc2)C(C(=O)/C=C/c2ccc(C)cc2)C1 (stereo not drawn)	9.28	–
COC(=O)Cc1c(-c2[nH]c3ccccc3c2CC(=O)OC)[nH]c2ccccc12	-5.91	–
CC1(C)C(=O)CCC2(C)C1=CCC1C2C(=O)CC2(C)C1CCC2(O)C(=O)CO (stereo not drawn)	2.32	–
C#CCOCCOCCOCCNc1nc(N2CCOCC2)nc(N2CCN(C(=O)[C@H](Cc3ccc(O)cc3)n3cc(CCO)nn3)CC2)n1	-0.365	–
CSc1ncnc2c1ncn2CC(=O)C1CCC2C3CCC4=CC(=O)CCC4(C)C3CCC12C (stereo not drawn)	-1.96	–
COc1ccc(/C=C/C(=O)OCC(=O)N2CCN(S(=O)(=O)c3ccc(C)cc3C)CC2)cc1OC	-0.829	–
CN(C)c1ccc(CSc2ccccc2)cc1	-3.62	–
Cc1cccc(CC2(O)C(=O)Nc3ccccc32)n1 (stereo not drawn)	-4.17	–
O=C(Cc1ccc(NC(=O)C2CCCN(C(=O)CCc3ccccc3)C2)cc1)Nc1ccc(C(=O)N2CCOCC2)cc1 (stereo not drawn)	5.08	–
O=C(Cc1ccc(S(=O)(=O)N2CCOCC2)s1)Nc1ccc(Br)c(C(F)(F)F)c1	-0.992	–
CN(CCc1ccccc1)C(=O)c1cccc(NC(=O)Cc2cccc(NC(=O)C3CCCN(C(=O)CCc4ccccc4)C3)c2)c1 (stereo not drawn)	-1.7	–
COc1ccc(CNCCCNCc2ccc(OC)c(OC)c2)cc1OC	3.08	–
CCOc1cc(C=NNC(=O)CCCC(=O)NN=Cc2ccc(O)c(OCC)c2)ccc1O	0.872	–
COc1ccc(Br)cc1/C=N/Nc1ccc(S(=O)(=O)Nc2ccccc2C(=O)O)cc1[N+](=O)[O-]	7.77	–
O=C(NN=Cc1ccccc1O)NN=Cc1ccccc1O	-2.35	–
O=C(NNC(=O)c1ccccc1O)c1ccccc1O	3.01	–
CCCN(CCC)S(=O)(=O)c1cc2c(cc1Br)CCN2C(=O)CC	7.53	–
CCOc1ccccc1NC(=S)C(=C([O-])c1ccc2c(c1)OCCO2)[n+]1ccc(CC)cc1	-0.299	–
COc1ccc(N=C2C=CC(=O)O2)cc1	-0.507	–
Cc1cccc(C=CC(=O)c2ccc(Cl)cc2)c1	-1	–
COc1ccc(CCNC(=O)COc2cc(C)cc3oc(=O)c(C)c(C)c23)cc1OC	4.97	–
